The values below come from ChEMBL document CHEMBL3407375, “Substituted pyrrolidin-2-ones: Centrally acting orexin receptor antagonists promoting sleep. Part 2” (Bioorg Med Chem Lett, 2015).

Protein sequences, listed by entry. Tags and fused reporters are not part of them.
UniProt O43613, whole entry, looked up: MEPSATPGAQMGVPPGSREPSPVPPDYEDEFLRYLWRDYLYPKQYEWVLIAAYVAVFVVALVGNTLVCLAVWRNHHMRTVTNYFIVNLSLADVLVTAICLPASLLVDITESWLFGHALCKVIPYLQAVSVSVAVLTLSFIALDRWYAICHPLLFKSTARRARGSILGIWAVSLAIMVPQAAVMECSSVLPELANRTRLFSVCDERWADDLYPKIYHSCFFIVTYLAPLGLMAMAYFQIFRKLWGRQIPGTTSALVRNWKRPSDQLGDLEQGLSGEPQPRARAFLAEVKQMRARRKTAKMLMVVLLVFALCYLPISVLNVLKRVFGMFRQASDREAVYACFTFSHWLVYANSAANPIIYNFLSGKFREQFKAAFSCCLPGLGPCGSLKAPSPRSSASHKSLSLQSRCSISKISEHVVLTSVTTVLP
UniProt O43614, whole entry, looked up: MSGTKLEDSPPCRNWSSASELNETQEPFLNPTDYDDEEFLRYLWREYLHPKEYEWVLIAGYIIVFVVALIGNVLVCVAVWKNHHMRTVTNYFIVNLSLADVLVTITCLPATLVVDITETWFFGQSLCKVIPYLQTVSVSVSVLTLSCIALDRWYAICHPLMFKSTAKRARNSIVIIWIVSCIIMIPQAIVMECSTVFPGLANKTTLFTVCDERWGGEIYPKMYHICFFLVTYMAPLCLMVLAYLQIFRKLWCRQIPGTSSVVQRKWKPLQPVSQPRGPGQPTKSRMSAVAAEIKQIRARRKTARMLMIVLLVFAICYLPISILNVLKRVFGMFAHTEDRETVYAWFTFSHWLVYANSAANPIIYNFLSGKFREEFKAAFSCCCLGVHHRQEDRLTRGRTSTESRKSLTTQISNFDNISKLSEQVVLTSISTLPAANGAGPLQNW

Experiment [1] addresses T1, Orexin/Hypocretin receptor type 1 (Homo sapiens, UniProt O43613). Nature of the experiment: Antagonist activity at human orexin 1 receptor expressed in CHO cells assessed as inhibition of orexin-A-induced calcium mobilization by FLIPR assay. Type of experiment: functional, cell-based.
Experiment [2] addresses T2, Orexin receptor type 2 (Homo sapiens, UniProt O43614). The experiment is described as follows: Antagonist activity at human orexin 2 receptor expressed in CHO cells assessed as inhibition of orexin-A-induced calcium mobilization by FLIPR assay. Type of experiment: functional, cell-based.
For experiment [3], the target named is T2, Orexin receptor type 2. Nature of the experiment: Binding affinity to human OX2R.
In experiment [4] the target is T1, Orexin/Hypocretin receptor type 1. Nature of the experiment: Binding affinity to human OX1R.

On to `COc1cccc(F)c1[C@H]1C[C@H](O)C(=O)N1Cc1ccc2oc3ccccc3c2c1`, for which the IC50 is 315 nM in experiment [1] and 1200 nM at Orexin receptor type 2 [2].

In the case of `COc1cccc(F)c1[C@@H]1C[C@@H](O)C(=O)N1Cc1ccc2oc3ccccc3c2c1`, the IC50 amounted to 4 nM at Orexin receptor type 2 [3], 737 nM in experiment [4], 3 nM in experiment [1] and 264 nM at Orexin receptor type 2 [2].

As to `COc1cccc(OC)c1[C@@H]1C[C@H](F)C(=O)N1Cc1ccc(OC(F)(F)F)cc1` (racemic), the IC50 in experiment [1] was 19 nM.

`COc1cccc(F)c1[C@@H]1C[C@H](Cl)C(=O)N1Cc1ccc2oc3ccccc3c2c1` (racemic): the IC50 in experiment [1] was found to be 5 nM.

Turning to `COc1cccc(OC)c1[C@@H]1C[C@@H](F)C(=O)N1Cc1ccc(OC(F)(F)F)cc1` (racemic), in experiment [1], the IC50 is 242 nM.

Consider `COc1cccc(OC)c1[C@@H]1C[C@H](F)C(=O)N1Cc1ccc2oc3ccccc3c2c1` (racemic), for which the IC50 in experiment [1] worked out at 2 nM.

Turning to `COc1cccc(OC)c1[C@@H]1C[C@@H](O)C(=O)N1Cc1ccc(OC(F)(F)F)cc1` (racemic), the IC50 in experiment [1] was 59 nM.

For the molecule `COc1cccc(F)c1[C@@H]1C[C@H](F)C(=O)N1Cc1ccc2oc3ccccc3c2c1` (racemic), the IC50 in experiment [1] turned out to be 2 nM.

`COc1cccc(F)c1C1C[C@@H](O)C(=O)N1Cc1ccc2oc3ccccc3c2c1` (mixture of isomers): the IC50 in experiment [1] amounted to 5 nM; on Orexin receptor type 2 [2] it was 467 nM.

For the molecule `COc1cccc(OC)c1[C@@H]1C[C@H](O)C(=O)N1Cc1ccc(OC(F)(F)F)cc1` (racemic), the IC50 in experiment [1] came to 670 nM.
